Laboratory results from ChEMBL document CHEMBL5506019 (J Med Chem, 2024).
The source made the active and inactive calls. The calls are words filed in the database; no cut-off is given here.

Sequences of proteins named here, by UniProt entry; tags and fusion partners are left off. A change or cut given only in a name is not applied to a line headed by its entry.
UniProt P28335: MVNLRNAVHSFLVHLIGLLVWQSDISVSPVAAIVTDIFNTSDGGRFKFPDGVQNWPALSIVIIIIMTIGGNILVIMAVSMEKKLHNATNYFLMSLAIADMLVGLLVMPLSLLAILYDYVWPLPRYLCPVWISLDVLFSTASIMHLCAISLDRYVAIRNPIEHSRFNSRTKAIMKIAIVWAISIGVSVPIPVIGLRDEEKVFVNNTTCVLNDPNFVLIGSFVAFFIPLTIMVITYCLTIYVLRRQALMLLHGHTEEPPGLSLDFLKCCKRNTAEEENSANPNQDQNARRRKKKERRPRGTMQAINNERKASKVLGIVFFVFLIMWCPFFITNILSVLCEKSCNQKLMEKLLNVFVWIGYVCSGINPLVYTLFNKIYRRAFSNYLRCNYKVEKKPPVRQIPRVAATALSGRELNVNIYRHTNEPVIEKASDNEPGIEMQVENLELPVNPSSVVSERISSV

These compounds were tested against 5-hydroxytryptamine receptor 2C (Homo sapiens) (UniProt P28335) (assay: Agonist activity at human 5-HT2CR expressed in HEK293 cells upto 50 uM incubated upto 90 sec by Fluo-4 AM dye based Ca2+ imaging assay).
Assay type: functional, cell-based
For `COc1cc(C(F)(F)F)c(OC)cc1[C@@H]1CCCNC1`, the Activity was “inactive”. In the case of `COc1cc([C@@H]2CCCNC2)c(OC)cc1Br`, the Activity is reported as “inactive”. For `COc1cc(C2CCCNC2)c(OC)cc1C` (configuration not stated), the Activity was “inactive”. With `COc1cc(C2CCCNC2)c(OC)cc1SC(C)C` (configuration not stated) the Activity was “inactive”. For `COc1cc(C2CCCNC2)c(OC)cc1C#N` (configuration not stated), the Activity was “inactive”. With `COc1cc(C(F)(F)F)c(OC)cc1[C@H]1CCCN(C)C1` the Activity was “inactive”. With `COc1cc(C(F)(F)F)ccc1C1CCCNC1` (configuration not stated) the Activity was “inactive”. With `COc1cc(C2CCCNC2)c(OC)cc1I` (configuration not stated) the Activity was “inactive”. With `CCCCc1cc(OC)c(C2CCCNC2)cc1OC` (configuration not stated) the Activity was “inactive”. `CCOc1cc(C(F)(F)F)c(OC)cc1C1CCCNC1` (configuration not stated) was tested, and the Activity was “inactive”. In the case of `CCOc1cc(C2CCCNC2)c(OC)cc1C(F)(F)F` (configuration not stated), the Activity is reported as “inactive”. In the case of `COc1cc(C2CCCNC2)c(OC)cc1Cl` (configuration not stated), the Activity is reported as “inactive”.
